Measured values as given in EP4729516A1, “S[…] DERIVATIVE, INTERMEDIATE, PREPARATION METHOD THEREFOR AND USE THEREOF” (Jiangsu NHWA Pharmaceutical Co., Ltd, priority 2023, dated 2024).

Chains of the proteins cited; added tags and fusions are not shown.
UniProt P18089, whole entry: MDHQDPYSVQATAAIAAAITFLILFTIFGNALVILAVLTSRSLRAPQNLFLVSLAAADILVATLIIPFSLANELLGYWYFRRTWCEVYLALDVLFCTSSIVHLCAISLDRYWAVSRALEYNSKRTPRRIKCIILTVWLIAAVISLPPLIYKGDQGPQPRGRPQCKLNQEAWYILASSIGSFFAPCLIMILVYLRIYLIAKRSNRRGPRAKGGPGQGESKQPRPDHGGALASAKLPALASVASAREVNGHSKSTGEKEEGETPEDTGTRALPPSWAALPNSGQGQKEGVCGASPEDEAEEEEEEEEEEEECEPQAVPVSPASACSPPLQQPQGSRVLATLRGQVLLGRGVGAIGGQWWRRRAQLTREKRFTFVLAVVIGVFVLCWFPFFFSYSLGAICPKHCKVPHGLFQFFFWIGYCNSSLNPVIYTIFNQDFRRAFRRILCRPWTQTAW
UniProt P18825, whole entry: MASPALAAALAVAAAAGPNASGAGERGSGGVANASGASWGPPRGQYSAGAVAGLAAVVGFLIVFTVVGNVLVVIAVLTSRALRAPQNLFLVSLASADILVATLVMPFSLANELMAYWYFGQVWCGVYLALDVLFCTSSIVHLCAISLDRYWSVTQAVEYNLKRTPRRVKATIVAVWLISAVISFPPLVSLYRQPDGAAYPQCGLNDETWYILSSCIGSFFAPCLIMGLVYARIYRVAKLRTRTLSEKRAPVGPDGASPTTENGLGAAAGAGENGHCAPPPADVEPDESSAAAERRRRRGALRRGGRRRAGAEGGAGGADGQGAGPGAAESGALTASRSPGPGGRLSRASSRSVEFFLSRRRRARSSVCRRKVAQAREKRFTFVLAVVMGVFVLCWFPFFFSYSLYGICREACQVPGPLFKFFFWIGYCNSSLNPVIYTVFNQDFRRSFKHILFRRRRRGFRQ
UniProt P08913, whole entry: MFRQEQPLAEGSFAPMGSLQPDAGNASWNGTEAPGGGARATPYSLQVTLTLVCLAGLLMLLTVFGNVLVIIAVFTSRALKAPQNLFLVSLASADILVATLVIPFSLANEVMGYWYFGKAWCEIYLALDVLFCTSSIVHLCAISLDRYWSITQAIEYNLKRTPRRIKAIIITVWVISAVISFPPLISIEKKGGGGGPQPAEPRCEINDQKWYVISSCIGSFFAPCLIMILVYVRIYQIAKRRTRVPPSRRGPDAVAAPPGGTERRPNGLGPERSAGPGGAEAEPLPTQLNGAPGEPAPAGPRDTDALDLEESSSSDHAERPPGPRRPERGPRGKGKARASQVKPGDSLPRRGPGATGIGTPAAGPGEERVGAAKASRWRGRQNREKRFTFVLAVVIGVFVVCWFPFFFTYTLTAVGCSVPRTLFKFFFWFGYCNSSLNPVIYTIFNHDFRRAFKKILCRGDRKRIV
UniProt P35348, whole entry: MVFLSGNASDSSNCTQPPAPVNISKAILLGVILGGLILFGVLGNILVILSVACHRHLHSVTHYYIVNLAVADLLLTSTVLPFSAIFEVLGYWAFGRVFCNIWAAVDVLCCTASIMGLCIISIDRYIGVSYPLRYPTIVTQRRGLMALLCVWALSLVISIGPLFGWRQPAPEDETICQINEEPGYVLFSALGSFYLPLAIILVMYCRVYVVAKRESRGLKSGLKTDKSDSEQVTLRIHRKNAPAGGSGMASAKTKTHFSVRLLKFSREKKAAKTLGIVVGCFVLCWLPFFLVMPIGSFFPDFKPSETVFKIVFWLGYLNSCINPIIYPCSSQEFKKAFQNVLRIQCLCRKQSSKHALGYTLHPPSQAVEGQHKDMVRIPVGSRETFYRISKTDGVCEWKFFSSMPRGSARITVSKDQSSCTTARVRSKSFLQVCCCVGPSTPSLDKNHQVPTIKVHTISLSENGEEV

Key:
Male SD rats = experiment: Hypnotic efficacy: loss of righting reflex (LORR) in rats
α2B adrenoceptor = α2B adrenoceptor (Homo sapiens, UniProt P18089); experiment: Agonist screening mode IP-One assay, CHO-α2B/Gα15 cells; format: cell-based; conditions: read-out: Function α2B
α2C adrenoceptor = α2C adrenoceptor (Homo sapiens, UniProt P18825); experiment: Agonist screening mode IP-One assay, CHO-α2C/Gα15 cells; format: cell-based; conditions: read-out: Function α2C
α2A adrenoceptor = α2A adrenoceptor (Homo sapiens, UniProt P08913); experiment: Agonist screening mode cAMP assay, 293-α2A cells; format: cell-based
α2C receptor = α2C receptor (Homo sapiens, UniProt P18825); experiment: Competitive receptor binding assay, α2C (3H-RX821002, CHO-K1-α2C membranes); conditions: read-out: Binding α2C
α1A receptor = α1A receptor (Homo sapiens, UniProt P35348); experiment: Competitive receptor binding assay, α1A (3H-Prazosin, CHO-K1-α1A membranes); conditions: read-out: Binding α1A
α2A receptor = α2A receptor (Homo sapiens, UniProt P08913); experiment: Competitive receptor binding assay, α2A (3H-RX821002, CHO-K1-α2A membranes)
α1A adrenoceptor = α1A adrenoceptor (Homo sapiens, UniProt P35348); experiment: Agonist screening mode IP-One assay, 293-α1A cells; format: cell-based; conditions: read-out: Function α1A
α2B receptor = α2B receptor (Homo sapiens, UniProt P18089); experiment: Competitive receptor binding assay, α2B (3H-RX821002, CHO-K1-α2B membranes); conditions: read-out: Binding α2B
[1] = in words, compared with dexmedetomidine hydrochloride, rats
[2] = loss of righting reflex, male SD rats, tail vein injection, dose twice the ED50, 10 rats per group

## C[C@H](c1c[nH]cn1)c1cc(F)cc2c1CCC2
Male SD rats; [1]
  duration: significantly shorter
  hypnotic onset time: comparable to or slightly longer
Male SD rats; loss of righting reflex, male SD rats, tail vein injection over 10 s, sequential method
  ED50: 0.0702 mg/kg
Male SD rats; [2]
  Onset time: 71.20±17.71 S
  duration: 1751.50±672.18 S
Male SD rats; time to induce sleep, rats, dose twice the ED50
  induce sleep in rats: ≤ 5 min
α2B adrenoceptor
  EC50: 0.00477 µM
α2C adrenoceptor
  EC50: 0.005 µM
α2A adrenoceptor; ratio of α1A to α2A EC50
  Function α1A/2A: 0.5 nM
α2A adrenoceptor; read-out: Function α2A, EC50, cAMP-Gi, 293-α2A cells, Forskolin 1 µM
  EC50: 0.0938 µM
α2C receptor
  Ki: 0.0325 µM
α1A receptor
  Ki: 0.806 µM
α2A receptor; ratio of α1A to α2A binding values
  Binding α1A/2A: 3.3 nM
α2A receptor; read-out: Binding α2A, Ki, CHO-K1-α2A membranes, 3H-RX821002
  Ki: 0.248 µM
α1A adrenoceptor
  EC50: 0.0482 µM
α2B receptor
  Ki: 0.0393 µM
